The assay addresses Nitric oxide synthase 1 (Homo sapiens, UniProt P29475).

The chains behind the UniProt entries cited, without tags or fusion partners.
UniProt P29475, whole entry: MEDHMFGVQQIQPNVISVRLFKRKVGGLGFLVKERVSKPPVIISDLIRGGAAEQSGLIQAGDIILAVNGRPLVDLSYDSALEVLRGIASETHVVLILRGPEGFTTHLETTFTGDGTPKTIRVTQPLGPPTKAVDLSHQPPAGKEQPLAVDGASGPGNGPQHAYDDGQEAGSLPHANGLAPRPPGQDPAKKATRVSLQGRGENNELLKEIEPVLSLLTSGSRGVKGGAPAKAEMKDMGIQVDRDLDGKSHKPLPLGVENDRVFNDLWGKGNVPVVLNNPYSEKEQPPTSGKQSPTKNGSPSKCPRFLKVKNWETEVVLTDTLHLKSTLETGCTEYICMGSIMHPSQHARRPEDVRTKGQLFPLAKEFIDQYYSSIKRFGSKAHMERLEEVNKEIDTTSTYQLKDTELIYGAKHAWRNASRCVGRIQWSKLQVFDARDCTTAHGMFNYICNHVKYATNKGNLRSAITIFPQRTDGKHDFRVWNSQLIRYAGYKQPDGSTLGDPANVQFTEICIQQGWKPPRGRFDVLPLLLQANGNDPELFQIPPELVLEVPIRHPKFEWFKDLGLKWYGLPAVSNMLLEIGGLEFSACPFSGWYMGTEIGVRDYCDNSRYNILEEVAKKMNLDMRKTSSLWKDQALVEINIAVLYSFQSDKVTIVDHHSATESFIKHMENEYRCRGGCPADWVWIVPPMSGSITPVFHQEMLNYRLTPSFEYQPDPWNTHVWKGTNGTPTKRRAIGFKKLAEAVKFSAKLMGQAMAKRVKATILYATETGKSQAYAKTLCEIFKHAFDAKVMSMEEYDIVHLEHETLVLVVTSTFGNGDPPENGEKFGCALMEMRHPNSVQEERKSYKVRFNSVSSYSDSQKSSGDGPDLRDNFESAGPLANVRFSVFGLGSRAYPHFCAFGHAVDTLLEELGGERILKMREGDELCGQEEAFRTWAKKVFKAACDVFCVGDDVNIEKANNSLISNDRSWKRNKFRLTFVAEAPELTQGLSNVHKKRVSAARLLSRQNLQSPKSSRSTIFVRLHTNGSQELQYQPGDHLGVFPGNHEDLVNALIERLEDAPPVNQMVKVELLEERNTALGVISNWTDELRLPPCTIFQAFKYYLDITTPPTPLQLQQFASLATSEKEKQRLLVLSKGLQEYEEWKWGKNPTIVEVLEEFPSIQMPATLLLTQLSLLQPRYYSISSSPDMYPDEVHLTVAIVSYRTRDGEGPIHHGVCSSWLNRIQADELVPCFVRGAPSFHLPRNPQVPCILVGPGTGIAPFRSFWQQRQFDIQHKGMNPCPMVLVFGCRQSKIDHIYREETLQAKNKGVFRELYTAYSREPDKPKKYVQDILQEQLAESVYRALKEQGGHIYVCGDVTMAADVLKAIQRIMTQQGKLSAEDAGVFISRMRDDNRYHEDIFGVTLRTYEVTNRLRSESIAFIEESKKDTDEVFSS

The structures appear in SMILES notation.

For orientation: Ki means a measure of affinity in units of concentration, obtained from inhibition or displacement. Higher therefore signals weaker binding.

The compound `CC(=N)NCCC[C@H](N)C(=O)O` [L-NIO] came in with a Ki of 1700 nM.
